Results taken from article doi:10.1101/2022.06.01.494340.

Target: EGFR-mTFP (UniProt P00533)
Assay: ratiometric fluorescence imaging of labelled ligand on live cells

EGF-Alexa647 (ligand) gave an EGF-receptor occupancy at 20 ng/ml EGF-Alexa647 of 20%.
